Experimental data taken from PMC5970795.

Experiments:
Test in all cases: fluorescence polarisation
[1] = target: C-terminal bromodomain of BRD4
[2] = target: N-terminal bromodomain of BRD3
[3] = target: N-terminal bromodomain of BRDT
[4] = target: C-terminal bromodomain of BRD2
[5] = target: C-terminal bromodomain of BRD3

Substance	Kd [1] [µM]	Kd [2] [µM]	Kd [3] [µM]	Kd [4] [µM]	Kd [5] [µM]
histone H4(1-11) peptide H4K5/8diacetyl	740	93	15	182	920
histone H4(1-11) peptide H4K5/8dicrotonyl	–	270	–	–	–
histone H4(1-11) peptide H4K5acetylK8butyryl	–	–	88	337	–
histone H4(1-11) peptide H4K5acetylK8glutaryl	–	123	131	219	–
histone H4(1-11) peptide H4K5acetylK8hydroxyisobutyryl	–	–	120	223	–
histone H4(1-11) peptide H4K5acetylK8propionyl	–	59	76	187	–
histone H4(1-11) peptide H4K5acetylK8succinyl	–	87	83	310	–
histone H4(1-11) peptide H4K5crotonylK8acetyl	–	399	–	–	–
histone H4(1-11) peptide H4K5propionylK8acetyl	–	–	116	206	–
histone H4(1-11) peptide H4K8acetyl	–	109	279	361	284

Second part, the substance after the results:

Kd [1] [µM]	Kd [2] [µM]	Kd [3] [µM]	Kd [4] [µM]	Kd [5] [µM]	Substance
960	360	58	131	–	histone H4(1-11) peptide H4K5/8dipropionyl
525	44	303	145	397	histone H4(1-11) peptide H4K5acetyl
–	34	32	169	–	histone H4(1-11) peptide H4K5acetylK8crotonyl
–	186	–	166	–	histone H4(1-11) peptide H4K5hydroxyisobutyrylK8acetyl
